Test results reported in ChEMBL document CHEMBL1121722, “Nonquaternary cholinesterase reactivators. Dialkylaminoalkyl thioesters of alpha-ketothiohydroximic acids as reactivators of diisopropyl phosphorofluoridate inhibited acetylcholinesterase” (1981).

Sequences of proteins named here, by UniProt entry; tags and fusion partners are left off. A change or cut given only in a name is not applied to a line headed by its entry.
UniProt P22303: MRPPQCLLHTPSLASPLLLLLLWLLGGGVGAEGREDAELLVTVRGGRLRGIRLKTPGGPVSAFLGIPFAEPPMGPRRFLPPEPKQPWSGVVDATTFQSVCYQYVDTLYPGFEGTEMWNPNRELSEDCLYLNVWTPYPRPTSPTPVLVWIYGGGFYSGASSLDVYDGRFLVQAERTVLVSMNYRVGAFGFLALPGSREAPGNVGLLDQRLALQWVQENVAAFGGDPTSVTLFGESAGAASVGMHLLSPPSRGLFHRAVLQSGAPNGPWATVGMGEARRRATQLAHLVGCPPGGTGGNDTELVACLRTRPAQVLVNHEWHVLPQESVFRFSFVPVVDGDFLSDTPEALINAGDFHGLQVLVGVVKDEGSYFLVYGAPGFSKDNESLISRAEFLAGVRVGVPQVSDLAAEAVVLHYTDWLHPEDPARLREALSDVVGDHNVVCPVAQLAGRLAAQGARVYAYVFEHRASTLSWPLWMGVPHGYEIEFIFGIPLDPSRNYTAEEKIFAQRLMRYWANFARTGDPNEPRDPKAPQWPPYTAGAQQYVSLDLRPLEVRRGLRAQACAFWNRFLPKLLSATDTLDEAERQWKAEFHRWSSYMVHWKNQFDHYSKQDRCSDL

Key:
[1] = molecular target: Acetylcholinesterase (Homo sapiens) (UniProt P22303); test: Maximum attainable percent reactivation obtained for a range of concentrations of 4M*10e4 HOX and 1.52M*10e4OX
[2] = molecular target: Acetylcholinesterase (Homo sapiens) (UniProt P22303); test: Maximum attainable percent reactivation obtained for a range of concentrations of 10M*10e4 HOX and 3.76M*10e4OX
[3] = molecular target: Acetylcholinesterase (Homo sapiens) (UniProt P22303); test: Maximum attainable percent reactivation obtained for a range of concentrations of 12M*10e4 HOX and 4.51M*10e4OX
[4] = molecular target: Acetylcholinesterase (Homo sapiens) (UniProt P22303); test: Maximum attainable percent reactivation obtained for a range of concentrations of 2M*10e4 HOX and 0.752M*10e4OX
[5] = molecular target: Acetylcholinesterase (Homo sapiens) (UniProt P22303); test: Pseudo first order observed rate constants for reactivation of acetylcholinesterase at 10M*10e4 HOX and 3.76M*10e4OX; Kobs (min-1 X 10e3)
[6] = molecular target: Acetylcholinesterase (Homo sapiens) (UniProt P22303); test: Pseudo first order observed rate constants for reactivation of acetylcholinesterase at 20 M*10e4 HOX and 7.52M*10e4OX; Kobs (min-1 X 10e3)
[7] = molecular target: Acetylcholinesterase (Homo sapiens) (UniProt P22303); test: Ratio of ka to that of kr for reactivation of acetylcholinesterase at concentration of 2M*10e4 [HOX] and 13.3Me-1*10e-3 [OX]e-1 was determined
[8] = molecular target: Acetylcholinesterase (Homo sapiens) (UniProt P22303); test: ka for reactivation of acetylcholinesterase at concentration of 2M*10e4 [HOX] and 13.3Me-1*10e-3 [OX]e-1 was determined; Expressed as ka, 1/min 1*10e3
[9] = molecular target: Acetylcholinesterase (Homo sapiens) (UniProt P22303); test: Kinetic constant was determined for reactivation of acetylcholinesterase at concentration of 6M*10e4 [HOX] and 4.42Me-1*10e-3 [OX]e-1; (kobsd-ka)e-1, min
[10] = molecular target: Acetylcholinesterase (Homo sapiens) (UniProt P22303); test: Kinetic constant was determined for reactivation of acetylcholinesterase at concentration of 12M*10e4 [HOX] and 2.20 Me-1*10e-3 [OX]e-1; (kobsd-ka)e-1, min
[11] = molecular target: Acetylcholinesterase (Homo sapiens) (UniProt P22303); test: Ratio of [EOP'']infinity to that of [EOH]infinity for reactivation of acetylcholinesterase at concentration of 2M*10e4 [HOX] and 13.3Me-1*10e-3 [OX]e-1; Expressed as [EOP'']infinity/[EOH]infinity
[12] = molecular target: Acetylcholinesterase (Homo sapiens) (UniProt P22303); test: Maximum attainable percent reactivation obtained for a range of concentrations of 10M*10e4 HOX and 2.89M*10e4OX
[13] = molecular target: Acetylcholinesterase (Homo sapiens) (UniProt P22303); test: Maximum attainable percent reactivation obtained for a range of concentrations of 0.160 M *10e4 HOX and 0.0463M*10e4OX
[14] = molecular target: Acetylcholinesterase (Homo sapiens) (UniProt P22303); test: Pseudo first order observed rate constants for reactivation of acetylcholinesterase at 010 M *10e4 HOX and 2.89M*10e4OX; Kobs (min-1 X 10e3)
[15] = molecular target: Acetylcholinesterase (Homo sapiens) (UniProt P22303); test: kr for reactivation of acetylcholinesterase at concentration of 2M*10e4 [HOX] and 10 Me-1*10e-3 [OX]e-1 was determined; Expressed as kr, M*10e3
[16] = molecular target: Acetylcholinesterase (Homo sapiens) (UniProt P22303); test: Pseudo first order observed rate constants for reactivation of acetylcholinesterase at 0.200 M*10e4 HOX and 0.0571 M*10e4OX; Kobs (min-1 X 10e3)
[17] = molecular target: Acetylcholinesterase (Homo sapiens) (UniProt P22303); test: Pseudo first order observed rate constants for reactivation of acetylcholinesterase at 0.0100 M*10e4 HOX and 0.0289 M *10e4OX; Kobs (min-1 X 10e3)
[18] = molecular target: Acetylcholinesterase (Homo sapiens) (UniProt P22303); test: Maximum attainable percent reactivation obtained for a range of concentrations of 0.0100 M*10e4 HOX and 0.0289 M *10e4OX; No affinity point measured
[19] = molecular target: Acetylcholinesterase (Homo sapiens) (UniProt P22303); test: 1/kmax for reactivation of acetylcholinesterase at concentration of 2M*10e4 [HOX] and 10 Me-1*10e-3 [OX]e-1 was determined; Expressed as 1/kmax, min
[20] = molecular target: Acetylcholinesterase (Homo sapiens) (UniProt P22303); test: keff for reactivation of acetylcholinesterase at concentration of 2M*10e4 [HOX] and 10 Me-1*10e-3 [OX]e-1 was determined; Expressed as keff, 1/M 1/min
[21] = molecular target: Acetylcholinesterase (Homo sapiens) (UniProt P22303); test: Kinetic constant was determined for reactivation of acetylcholinesterase at concentration of 0.160 M *10e4 [HOX] and 216Me-1*10e-3 [OX]e-1; (kobsd-ka)e-1, min
[22] = molecular target: Acetylcholinesterase (Homo sapiens) (UniProt P22303); test: Ratio of Kr/kmax for reactivation of acetylcholinesterase at concentration of 2M*10e4 [HOX] and 10 Me-1*10e-3 [OX]e-1 was determined; Expressed as Kr/kmax, M-min*10e2
[23] = molecular target: Acetylcholinesterase (Homo sapiens) (UniProt P22303); test: Ratio of [EOP'']infinity to that of [EOH]infinity for reactivation of acetylcholinesterase at concentration of 0.2M*10e4 [HOX] and 175Me-1*10e-3 [OX]e-1; Expressed as [EOP'']infinity/[EOH]infinity
[24] = molecular target: Acetylcholinesterase (Homo sapiens) (UniProt P22303); test: Ratio of [EOP'']infinity to that of [EOH]infinity for reactivation of acetylcholinesterase at concentration of 0.100 M *10e4 [HOX] and 346Me-1*10e-3 [OX]e-1; Expressed as [EOP'']infinity/[EOH]infinity

## CCN(CC)CCS/C(=N\O)C(=O)c1ccc(OC)cc1
[1]
  Reactivation: 3.49%
[2]
  Reactivation: 4.05%
[3]
  Reactivation: 4.22%
[4]
  Reactivation: 3.3%
[5]
  k obs: 0.121 s⁻¹
[6]
  k obs: 0.128 s⁻¹
[7]
  ka/kr: 0.17
[8]
  ka: 2400 min⁻¹
[9]
  1/kobsd-ka: 281 min
[10]
  1/kobsd-ka: 187 min
[11]
  [EOP']infinity/[EOH]infinity: 2.69

## C[n+]1ccccc1C=NO
[12]
  Reactivation: 4.49%
[13]
  Reactivation: 4.42%
[14]
  k obs: 2090 s⁻¹
[15]
  kr: 61000 min⁻¹
[16]
  k obs: 498 s⁻¹
[17]
  k obs: 327 s⁻¹
[18]
  Reactivation: No affinity point measured
[19]
  1/kmax: 15 min
[20]
  k eff: 26.7 M⁻¹ s⁻¹
[21]
  1/kobsd-ka: 53.6 min
[22]
  Kr/kmax: 1.7 M-min
[23]
  [EOP']infinity/[EOH]infinity: n
[24]
  [EOP']infinity/[EOH]infinity: n
